Measurements as given in paper PMC8804612 (2021).

How the values were obtained:
LNCaP cells = test: EC50 determination, cell proliferation by IncuCyte live-cell imaging; format: cell-based; details: Homo sapiens, 48 h, read-out: EC50 (suppression of proliferation)
HUVEC = test: as above; format: cell-based; details: Homo sapiens, 48 h, read-out: EC50 (suppression of proliferation)
A431 cells = test: cells; details: Homo sapiens, A-431, 48 h, read-out: EC50 (suppression of proliferation)
A549 cells = test: cells; details: Homo sapiens, A549, 48 h, read-out: EC50 (suppression of proliferation)

## COc1cccc2c1-c1c(c3c(n1C(C)C)CC(C)CC3=O)C2=O (stereo not shown) [5a‐2, 5-Isopropyl-4-methoxy-7-methyl-5,6,7,8-tetrahydro-indeno[1,2-b]indole-9,10-dione]
LNCaP cells
  EC50: 14.2 µM
HUVEC
  EC50: 30.8 µM
A431 cells
  EC50: 21.2 µM
A549 cells
  EC50: 39.8 µM
